Measurements as given in US20240140952A1, “INHIBITORS AND DEGRADERS OF JANUS KINASE 2” (H. LEE MOFFITT CANCER CENTER AND RESEARCH INSTITUTE, INC., priority 2021, published 2024).

Sequences of proteins named here, by UniProt entry; tags and fusion partners are left off. A change or cut given only in a name is not applied to a line headed by its entry.
UniProt O60674: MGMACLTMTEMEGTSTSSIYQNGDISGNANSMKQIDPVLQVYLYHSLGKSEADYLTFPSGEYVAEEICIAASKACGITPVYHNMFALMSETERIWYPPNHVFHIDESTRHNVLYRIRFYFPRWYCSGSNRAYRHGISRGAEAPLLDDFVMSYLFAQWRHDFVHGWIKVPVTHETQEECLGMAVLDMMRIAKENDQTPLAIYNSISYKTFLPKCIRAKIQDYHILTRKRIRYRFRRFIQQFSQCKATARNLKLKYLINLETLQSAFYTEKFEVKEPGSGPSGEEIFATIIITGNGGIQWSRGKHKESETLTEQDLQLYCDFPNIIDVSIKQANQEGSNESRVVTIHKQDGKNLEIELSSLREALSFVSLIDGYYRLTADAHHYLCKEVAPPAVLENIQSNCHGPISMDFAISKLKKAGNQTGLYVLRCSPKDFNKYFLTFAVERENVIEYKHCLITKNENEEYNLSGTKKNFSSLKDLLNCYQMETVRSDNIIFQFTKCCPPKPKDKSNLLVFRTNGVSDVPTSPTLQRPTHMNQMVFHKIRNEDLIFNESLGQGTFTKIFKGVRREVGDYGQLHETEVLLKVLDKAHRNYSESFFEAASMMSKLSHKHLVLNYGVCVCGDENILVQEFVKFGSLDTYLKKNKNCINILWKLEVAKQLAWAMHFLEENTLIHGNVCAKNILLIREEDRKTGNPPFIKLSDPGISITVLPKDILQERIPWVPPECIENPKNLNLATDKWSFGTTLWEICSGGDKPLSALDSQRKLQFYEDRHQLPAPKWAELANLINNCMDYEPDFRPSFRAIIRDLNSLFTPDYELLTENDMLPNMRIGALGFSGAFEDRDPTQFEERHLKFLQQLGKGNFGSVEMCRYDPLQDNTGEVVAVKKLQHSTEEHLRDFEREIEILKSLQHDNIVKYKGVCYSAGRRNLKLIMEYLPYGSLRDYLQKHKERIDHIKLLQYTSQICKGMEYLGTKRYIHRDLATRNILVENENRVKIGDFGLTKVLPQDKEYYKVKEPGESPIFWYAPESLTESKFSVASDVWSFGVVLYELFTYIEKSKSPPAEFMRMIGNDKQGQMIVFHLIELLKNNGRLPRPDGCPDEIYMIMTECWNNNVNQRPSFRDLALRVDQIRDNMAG

Molecular target: JAK2 (Homo sapiens (Human), UniProt O60674)
Test: Radiometric assay of enzymatic JAK2 activity by Reaction Biology Corp.
Settings: read-out: Biochemical inhibition IC50

SMILES: CCS(=O)(=O)N1CC(CC#N)(n2cc(-c3ncnc4[nH]ccc34)cn2)C1 [Baricitinib, reference compound]
- IC50: 0.29 ± 0.13 nM
